The source of these data is ChEMBL document CHEMBL1136157, “Synthesis of 3a,4-dihydro-3H-[1]benzopyrano[4,3-c]isoxazoles, displaying combined 5-HT uptake inhibiting and alpha(2)-adrenoceptor antagonistic activities: a novel series of potential antidepressants” (Bioorg Med Chem Lett, 2003).

Sequences of proteins named here, by UniProt entry; tags and fusion partners are left off.
UniProt P08913, whole entry: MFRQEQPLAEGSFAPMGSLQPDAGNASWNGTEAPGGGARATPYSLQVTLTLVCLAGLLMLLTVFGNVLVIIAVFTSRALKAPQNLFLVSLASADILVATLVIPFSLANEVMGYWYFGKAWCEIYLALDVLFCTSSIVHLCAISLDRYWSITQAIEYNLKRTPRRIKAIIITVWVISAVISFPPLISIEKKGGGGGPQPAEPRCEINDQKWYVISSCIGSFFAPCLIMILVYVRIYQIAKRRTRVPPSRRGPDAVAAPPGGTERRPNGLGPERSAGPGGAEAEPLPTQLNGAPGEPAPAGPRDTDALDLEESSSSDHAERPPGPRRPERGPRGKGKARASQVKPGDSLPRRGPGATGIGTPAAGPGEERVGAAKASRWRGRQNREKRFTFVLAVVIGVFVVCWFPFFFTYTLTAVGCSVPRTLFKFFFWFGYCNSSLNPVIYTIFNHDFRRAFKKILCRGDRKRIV

For the assay, the target named is Alpha-2A adrenergic receptor (Homo sapiens, UniProt P08913). The assay can be described thus: In vitro binding affinity towards human alpha-2A adrenergic receptor using [3H]rauwolscine.

`COc1ccc2c(c1)OCC1C2=NOC1CN1CCN(C/C=C/c2ccccc2)CC1` (stereo unspecified): the affinity corresponds to a Ki of 0.5 nM.

Broadly, the Ki is the equilibrium dissociation constant of an inhibitor or competing ligand from its target. A high value points to lower affinity.
